{"source": "PubChem BioAssay AID488899", "about": "(Broad Institute, 2010)", "note": "This is a selection; strong and weak results do not stand in their true shares. Active and inactive are the calls of the source.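 The calls were made as follows: active = mean inhibition across replicates of 60% or more, whatever share of single replicates reaches that level; inconclusive = some that reach 60%, reason not given; inactive = mean inhibition across replicates below 60%.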"}
{"test": "MITF transcriptional activity suppression – cell-based, SK-MEL-5, single point, luciferase, primary screen (AID 488899)", "conditions": "SK-MEL-5 TRPM1 promoter luciferase, 24 h; at 12.5 µM; hits give high values"}
{"smiles": "CCCOc1ccc(NP(C)(=O)Oc2ccc(Cl)cc2)cc1", "note": "(stereo unspecified)", "inhibition": "inactive: 2.38%"}
